For this experiment, the target named is CCL-13 (Homo sapiens, UniProt Q99616). The experiment in a line: BLI binding assay, biotinylated compounds on streptavidin biosensors, CCL-13. The protocol:
Cytokines and growth factors are important proteins modulating cellular functions, many of which are known to interact with HS.[1,8,34,67] To probe the impacts of the glycan and the core peptide, the binding of glycopeptide 1, pentasaccharide 30, and peptide 31 to several representative growth factors and cytokines including fibroblast growth factor 2 (FGF-2), interleukin 8 (IL-8) and chemokine (C–C motif ligand 13 (CCL-13)) respectively was tested using the biolayer interferometry (BLI). The biotinylated glycopeptide 1, pentasaccharide 30, and peptide 31 were immobilized on streptavidin coated biosensors, and their dissociation constants (KD) with the proteins were measured (Table 2). […]
General procedure for biotinylation
To a solution of free amine compounds in DMSO/H 2O (1/1, 0.5 ml) was added […]
The reaction was stirred at room temperature for 5 hours. Then the mixture was loaded onto a G-15 Sephadex column for purification. […] General procedure for BLI binding assay
The binding assay was performed on the Octet K2 System (Pall ForteBio). The biotinylated […]
compounds were absorbed to streptavidin (SA) sensor for 2 min. The sensor was then balanced in the assay buffer (PBS containing 0.005% P20) and dipped into protein solution in assay buffer at different concentration. After 5 min of association, the sensor was brought back to the previous assay
On the technique in general: Biolayer interferometry detects binding as a change in optical thickness at a sensor tip.

Protein sequences, listed by entry. Tags and fused reporters are not part of them. Residues count along the entry.
UniProt Q99616, 17-98, species assumed: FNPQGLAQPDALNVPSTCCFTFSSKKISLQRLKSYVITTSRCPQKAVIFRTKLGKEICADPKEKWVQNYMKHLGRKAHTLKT

The structures appear in SMILES notation.

On to `O=C(O)CCCC[C@@H]1SC[C@@H]2NC(=O)N[C@@H]21` [biotin, reference compound], for which the “KD with CCL-13” value is “did not show any significant binding”.
